Data on two compounds can be found in PubChem BioAssay AID1477 (National Center for Advancing Translational Sciences (NCATS), 2009).

Chains of the proteins cited; added tags and fusions are not shown.
UniProt Q01196, whole entry partner: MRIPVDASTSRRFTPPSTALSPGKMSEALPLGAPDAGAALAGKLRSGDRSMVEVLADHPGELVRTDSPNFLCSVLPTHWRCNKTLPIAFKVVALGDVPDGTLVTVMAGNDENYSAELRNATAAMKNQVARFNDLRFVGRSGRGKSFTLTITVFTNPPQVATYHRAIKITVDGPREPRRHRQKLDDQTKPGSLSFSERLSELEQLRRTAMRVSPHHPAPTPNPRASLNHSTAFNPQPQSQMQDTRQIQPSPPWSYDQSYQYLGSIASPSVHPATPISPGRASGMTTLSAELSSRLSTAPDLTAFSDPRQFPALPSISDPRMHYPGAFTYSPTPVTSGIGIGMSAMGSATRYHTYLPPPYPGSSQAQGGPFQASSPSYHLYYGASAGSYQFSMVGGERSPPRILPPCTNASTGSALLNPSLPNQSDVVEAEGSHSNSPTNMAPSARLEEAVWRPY
UniProt Q13951, whole entry: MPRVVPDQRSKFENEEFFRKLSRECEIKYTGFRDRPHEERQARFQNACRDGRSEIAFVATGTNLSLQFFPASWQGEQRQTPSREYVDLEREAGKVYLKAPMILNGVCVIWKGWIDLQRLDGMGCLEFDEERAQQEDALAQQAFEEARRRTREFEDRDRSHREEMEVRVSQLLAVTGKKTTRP

Molecules are shown by their SMILES. The list shows a part of the results, in another mix than the full data. Inconclusive results are not listed. The source made the active and inactive calls. Calls come from the whole dose curve; as a rule, active = well fitted curve in the direction sought with a large enough effect; inconclusive = small, poorly fitted or top-dose-only effect, or effect the other way, or another doubt; inactive = no such curve, though single readings can be large or run the other way.

In the test the target is Runt-related transcription factor 1 (Homo sapiens) + Core-binding factor subunit beta (Homo sapiens) (UniProt Q01196+Q13951). The test is described as follows: qHTS Assay for Compounds Blocking the Interaction Between CBF-beta and RUNX1 for the Treatment of Acute Myeloid Leukemia. Note: % of control where 0% means no effect. The conditions noted are these: AlphaScreen CBFb-His/RUNX1-biotin binding, biochemical.

Turning to `O=[N+]([O-])C(Cl)(Cl)Cl`, the activity, negative = inhibition (at 21.7 µM (top of the series)) is inactive: 3.79%.

As for `CN(CCCl)CCCl`, the activity, negative = inhibition runs as follows: (at 21.7 µM (top of the series)) inactive: 1.81%; (at 59.8 µM (top of the series)) inactive: -4.99%.
